## OPERA 2.9 data: logP (octanol/water) values

Data: OPERA 2.9 data sets, kmansouri/OPERA on GitHub.

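OPERA's authors assembled the values from existing databases and did not measure them anew. A listed value is a point estimate from one report or more. Method, purity and exact conditions of the single measurements are not given. A value may pool stereoisomers or salt forms, and the file does not say which form was measured. Unmarked limits or estimates from the upstream databases cannot be ruled out.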

logP is the log10 of the octanol-water partition coefficient; higher is more lipophilic.
Cells with "n/a" have no entry in this list.
The databases behind each value are named after "via".

structure (SMILES)	name	logP (octanol/water)	via
FC(F)(Cl)Br	Methane, bromochlorodifluoro-	2.1	PubChem
CC(C)c1ccc(CO)cc1	4-Isopropylbenzyl alcohol	2.49	OCHEM
CN1C(=O)CN=C(c2ccccc2Cl)c2cc(Cl)ccc21	2-Chlorodiazepam	3.12	OCHEM
FC(Cl)(Cl)C(F)(Cl)Cl	n/a	2.985	OCHEM, eChemPortal
O=C1C[N+]([O-])=C(c2ccccc2)c2cc(Cl)ccc2N1CCO	n/a	0.82	OCHEM
C=C(C)CCl	3-Chloro-2-methylpropene	1.98	PubChem
C[C@]12C[C@H](N3CCOCC3)[C@@H](O)C[C@@H]1CC[C@@H]1[C@@H]2CC[C@]2(C)[C@@H](O)[C@@H](N3CCCC3)C[C@@H]12	n/a	4.6	eChemPortal
CN(C)N	1,1-Dimethylhydrazine	-0.4	OCHEM, eChemPortal
Clc1ccc(-c2cc(Cl)c(Cl)c(Cl)c2)cc1	n/a	6.36	OCHEM
CCCC[N+](CCCC)(CCCC)CCCC.[Br-]	Tetrabutylammonium bromide	0.839	eChemPortal
CN1CCN(C(=O)OC2c3nccnc3C(=O)N2c2ccc(Cl)cn2)CC1 (stereo unspecified)	Zopiclone	0.8	PubChem
O=CCCl	2-Chloroacetaldehyde	0.495	PubChem, eChemPortal
ClCCOCOCCCl	Bis(2-chloroethoxy)methane	1.6	eChemPortal
Cc1cc(Cl)ccc1OCCCC(=O)O	MCPB	2.79	PubChem
Br.NCCBr	Ethanamine, 2-bromo-, hydrobromide (1:1)	0.795	eChemPortal
COC(=O)c1cc([N+](=O)[O-])cc([N+](=O)[O-])c1	Methyl 3,5-dinitrobenzoate	1.84	OCHEM
Nc1ccc(Cl)cc1C(=O)c1ccccc1Cl	Methanone, (2-amino-5-chlorophenyl)(2-chlorophenyl)-	3.1	eChemPortal

The first 2 entries again:

{"smiles": "FC(F)(Cl)Br", "name": "Methane, bromochlorodifluoro-", "logP (octanol/water)": "2.1", "via": "PubChem"}
{"smiles": "CC(C)c1ccc(CO)cc1", "name": "4-Isopropylbenzyl alcohol", "logP (octanol/water)": "2.49", "via": "OCHEM"}